Reference: US7056935B2, “Rotamase enzyme activity inhibitors” (GPI NIL Holdings, Inc., priority 1995, dated 2006)

Sequences of proteins named here, by UniProt entry; tags and fusion partners are left off.
UniProt P62942, whole entry: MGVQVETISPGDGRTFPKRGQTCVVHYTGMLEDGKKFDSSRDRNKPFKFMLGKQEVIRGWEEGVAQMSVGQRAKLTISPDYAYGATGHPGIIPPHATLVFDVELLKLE

How the values were obtained:
[1] = system: chick dorsal root ganglia (DRG) explants; experiment: Chick dorsal root ganglion cultures and neurite outgrowth; format: cell-based; conditions: drug alone; chick embryo DRG explants, 48 hours after drug treatment
[2] = target: FKBP (Homo sapiens, UniProt P62942); experiment: Ki test procedure: inhibition of peptidyl-prolyl isomerase (rotamase) activity, chymotrypsin-coupled assay; format: biochemical; conditions: apparent Ki, substrate N-succinyl-Ala-Phe-Pro-Phe-p-nitroanilide, Table I

| Compound | ED50, nM Neurite Outgrowth in DRG Cultures [1] | Ki [2] [nM] |
| --- | --- | --- |
| COc1ccc(CCC(CCCc2ccccc2)OC(=O)[C@@H]2CCCCN2C(=O)C(=O)c2ccccc2)cc1 (some centres unmarked) | 10 to 20 nM |  |
| O=C(C(=O)N1CCCC[C@H]1C(=O)OCCCCC1CCCCC1)c1ccccc1 | 10 to 20 nM | 400 |
| O=C(C(=O)N1CCCC[C@H]1C(=O)OCc1ccccc1)c1ccco1 | 1000 nM | 3000 |
| O=C(C(=O)N1CCCC[C@H]1C(=O)OC(CCCc1ccccc1)CCCc1cccnc1)c1ccccc1 (some centres unmarked) | 1 to 5 nM |  |
| O=C(C(=O)N1CCCC[C@H]1C(=O)OC(CCCc1ccccc1)CCCc1ccccn1)c1ccccc1 (some centres unmarked) | 0.063 nM |  |
| CC(C)Oc1cccc(C(=O)C(=O)N2CCCC[C@H]2C(=O)OC(CCCc2ccccc2)CCCc2cccnc2)c1 (some centres unmarked) | 0.30 nM |  |
| COc1cc(C(=O)C(=O)N2CCCC[C@H]2C(=O)OCCCCC2CCCCC2)cc(OC)c1OC | 0.031 nM |  |
| COc1cc(C(=O)C(=O)N2CCCC[C@H]2C(=O)OCCCc2c[nH]c3ccccc23)cc(OC)c1OC | 0.055 nM |  |
| COC(=O)C(=O)N1CCCC[C@H]1C(=O)OCCCC1CCCCC1 | >10,000 nM | 20000 |
| COC(=O)C(=O)N1CCCC[C@H]1C(=O)OCCCC1CCCC1 | >10,000 nM |  |
| COC(=O)C(=O)N1CCCC[C@H]1C(=O)OCCCCC1CCCCC1 | >10,000 nM |  |
